Results: BindingDB's records for doi:10.1016/s0024-3205(03)00272-8 (Merck Research Laboratories, 2003)

Target: T1, Alpha-1A adrenergic receptor (Rattus norvegicus, UniProt P43140)
T1 sequence (P43140 whole entry): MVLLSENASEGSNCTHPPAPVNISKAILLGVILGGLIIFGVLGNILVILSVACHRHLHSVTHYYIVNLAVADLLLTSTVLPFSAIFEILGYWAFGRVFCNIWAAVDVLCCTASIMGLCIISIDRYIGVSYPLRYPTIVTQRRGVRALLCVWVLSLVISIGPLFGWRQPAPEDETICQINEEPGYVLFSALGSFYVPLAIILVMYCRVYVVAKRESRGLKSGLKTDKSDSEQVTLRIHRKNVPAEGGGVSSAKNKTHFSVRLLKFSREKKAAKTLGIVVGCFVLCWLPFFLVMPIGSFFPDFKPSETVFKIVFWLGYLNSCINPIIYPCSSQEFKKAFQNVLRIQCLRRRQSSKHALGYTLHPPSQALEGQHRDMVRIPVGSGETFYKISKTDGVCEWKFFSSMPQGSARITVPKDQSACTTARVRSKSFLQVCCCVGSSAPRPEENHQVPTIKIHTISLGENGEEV

## COC(=O)C1C(O)CCC2CN3CCc4c([nH]c5ccccc45)C3CC21 (stereo unspecified) [NSC_2866]
  Ki: 7.6 µM
